Usually Kd stands for a measure of binding affinity in units of concentration. Read a low Kd as higher affinity.

Protein sequences, listed by entry. Tags and fused reporters are not part of them. Lines headed by an entry give the natural chain unless they say otherwise; changes in a name come on top. Residues count along the entry.
UniProt P41143, 1-357 limits assumed: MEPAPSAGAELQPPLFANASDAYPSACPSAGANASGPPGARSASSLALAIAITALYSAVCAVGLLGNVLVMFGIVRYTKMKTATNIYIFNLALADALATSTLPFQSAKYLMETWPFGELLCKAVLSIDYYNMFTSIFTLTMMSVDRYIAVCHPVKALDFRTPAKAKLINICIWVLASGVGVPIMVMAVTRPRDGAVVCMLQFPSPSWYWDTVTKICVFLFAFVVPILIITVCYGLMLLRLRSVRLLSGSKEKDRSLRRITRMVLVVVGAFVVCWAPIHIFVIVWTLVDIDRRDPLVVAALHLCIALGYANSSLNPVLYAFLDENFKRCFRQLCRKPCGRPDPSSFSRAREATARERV

Among the data in patent US20160051704A1, “MOLECULAR IMAGING PROBES FOR LUNG CANCER INTRAOPERATIVE GUIDANCE” (H. Lee Moffitt Cancer Center and Research Institute, Inc., priority 2013, published 2016) are Kd values, retold here.

This assay addresses T1, δOR on HCT-116/δOR cell line (Homo sapiens, UniProt P41143).
T1 construct: pcDNA-δOR15 vector containing a truncated δOR lacking the final 15 C-terminal amino acids; expressed in transfected cells
In words: In cyto time-resolved fluorescence (TRF) saturation binding assay. As to the method: For the competitive binding assays, HCT-116/δOR cells were plated in black wall/white bottom 96-well plates (Perkin Elmer, Cat. #6005060) at a density of 20,000 cells per well and were allowed to grow for 3 days.

For the substance “Europium (Eu)-diethylenetriaminepentaacetic acid (DTPA)[D-Pen^2, L-Cys^5] enkephalin (DPLCE) [Eu-DTPA labeled DPLCE]”, the Kd was 51.8 nM.
